This passage reports cytotoxicity results from patent EP2411506B1, “TUMOR SUPPRESSION USING HUMAN PLACENTA-DERIVED INTERMEDIATE NATURAL KILLER CELLS AND IMMUNOMODULATORY COMPOUNDS” (Celularity, Inc., priority 2009, dated 2010).

This series concerns colorectal carcinoma cell line HCT-116. To be noted: ex vivo cultured (day 19) PINK cells pre-treated for 24 hours, then co-cultured with HCT-116; untreated PINK cells 24.3%.

For `Nc1cccc2c1C(=O)N(C1CCC(=O)NC1=O)C2=O` (racemic) [pomalidomide, 4-amino-2-[(3RS)-2,6-dioxopiperidin-3-yl)-1H-isoindole-1,3(2H)-dione], the cytotoxicity is given as 47.4%.
